Results reported in US9890152B2 (Genentech, Inc., priority 2012, dated 2018).
Where a name gives a salt, the structure may show the parent alone.

Chains of the proteins cited; added tags and fusions are not shown. Residues count along the entry.
UniProt P00533, 25-1210 T790M/L858R limits assumed: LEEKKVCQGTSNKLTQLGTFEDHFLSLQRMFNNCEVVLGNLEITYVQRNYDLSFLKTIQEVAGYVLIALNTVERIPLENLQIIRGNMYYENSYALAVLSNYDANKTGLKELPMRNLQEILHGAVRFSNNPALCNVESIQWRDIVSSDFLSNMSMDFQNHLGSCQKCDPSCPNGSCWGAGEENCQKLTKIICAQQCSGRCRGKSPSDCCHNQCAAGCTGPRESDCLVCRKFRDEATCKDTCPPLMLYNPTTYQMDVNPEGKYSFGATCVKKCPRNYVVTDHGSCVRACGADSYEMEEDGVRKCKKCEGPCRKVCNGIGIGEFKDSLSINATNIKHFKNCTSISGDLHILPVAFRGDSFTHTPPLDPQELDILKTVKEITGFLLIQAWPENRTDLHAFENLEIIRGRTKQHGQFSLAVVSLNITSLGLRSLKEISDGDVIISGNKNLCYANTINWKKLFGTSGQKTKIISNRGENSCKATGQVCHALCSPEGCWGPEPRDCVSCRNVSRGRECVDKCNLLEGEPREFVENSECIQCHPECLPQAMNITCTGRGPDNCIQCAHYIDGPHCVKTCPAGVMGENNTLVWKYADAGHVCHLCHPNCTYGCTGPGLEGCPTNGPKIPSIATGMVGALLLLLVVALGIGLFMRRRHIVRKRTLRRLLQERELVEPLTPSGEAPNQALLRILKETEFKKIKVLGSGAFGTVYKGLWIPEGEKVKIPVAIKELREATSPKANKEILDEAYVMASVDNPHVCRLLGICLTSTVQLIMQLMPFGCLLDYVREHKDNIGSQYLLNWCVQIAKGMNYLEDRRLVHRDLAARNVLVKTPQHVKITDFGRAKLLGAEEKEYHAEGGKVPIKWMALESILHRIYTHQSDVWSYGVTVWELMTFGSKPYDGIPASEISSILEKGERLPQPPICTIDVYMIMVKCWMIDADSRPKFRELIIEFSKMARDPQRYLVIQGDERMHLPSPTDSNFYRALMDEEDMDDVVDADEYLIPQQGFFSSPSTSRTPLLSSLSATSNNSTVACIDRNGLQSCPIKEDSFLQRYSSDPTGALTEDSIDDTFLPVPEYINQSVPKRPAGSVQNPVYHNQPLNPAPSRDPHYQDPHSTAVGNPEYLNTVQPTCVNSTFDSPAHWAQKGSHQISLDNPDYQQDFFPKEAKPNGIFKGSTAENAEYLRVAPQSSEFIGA

The compounds below were run against EGFR T790M L858R (Homo sapiens, UniProt P00533, L858R/T790M) (assay: biochemical). Settings: EGFR(T790M/L858R) Ki (μM), 5 μM ATP, 30 min, room temperature; apparent Ki (Morrison) converted by Cheng-Prusoff, Km of ATP 1.3 μM.

| Structure (SMILES) | Ki [µM] |
| --- | --- |
| CC1CN(c2nccc(Nc3cc4c(cn3)ncn4C(C)C)n2)CCN1C(=O)OC(C)(C)C (stereo not shown) [Example 180] | 0.31 |
| CC(C)n1ccc2cnc(Nc3ccnc(N(C)CCO)n3)cc21 [Example 127] | 0.355 |
| CC(C)n1c([C@H](C)N)nc2cnc(Nc3ccnc(-c4cnn(S(=O)(=O)C5CC5)c4)n3)cc21 [Example 567, [2-((S)-1-Aminoethyl)-1-isopropyl-1H-imidazo[4,5-c]pyridin-6-yl]-[2-(1-cyclopropanesulfonyl-1H-pyrazol-4-yl)pyrimidin-4-yl]amine] | 0.0623 |
| CC(C)n1cnc2cnc(Nc3ccnc(N4CCCNC(=O)C4)n3)cc21 [Example 171] | 0.604 |
| COC1CCN(c2nccc(Nc3cc4c(cn3)ncn4C3CCOCC3)n2)CC1 [Example 19, [2-(4-Methoxypiperidin-1-yl)pyrimidin-4-yl]-[1-(tetrahydropyran-4-yl)-1H-imidazo[4,5-c]pyridin-6-yl]amine] | 0.0828 |
| CO[C@H]1CN(c2nccc(Nc3cc4c(cn3)nc(C)n4C(C)C)n2)CC[C@@H]1O (racemic) [Example 509, (±)-1-(4-((1-Isopropyl-2-methyl-1H-imidazo[4,5-c]pyridin-6-yl)amino)pyrimidin-2-yl)-3-methoxypiperidin-4-ol] | 0.0634 |
| O=S(=O)(C1CC1)n1cc(-c2nccc(Nc3cc4c(cn3)nc(CO)n4C3CC(F)(F)C3)n2)cn1 [Example 480, (6-(2-(1-(cyclopropylsulfonyl)-1H-pyrazol-4-yl)pyrimidin-4-ylamino)-1-(3,3-difluor^oCyclobutyl)-1H-imidazo[4,5-c]pyridin-2-yl)methanol] | 0.471 |
| COCCN1CCN(c2nccc(Nc3cc4c(cn3)ncn4C(C)C)n2)CC1 [Example 174] | 0.573 |
| CC(C)n1cnc2cnc(Nc3ccnc(N4CCS(=O)(=O)CC4)n3)cc21 [Example 30, 4-(4-((1-isopropyl-1H-imidazo[4,5-c]pyridin-6-yl)amino)pyrimidin-2-yl)thiomorpholine 1,1-dioxide] | 1.44 |
| CC(C)(CCO)n1c(CO)nc2cnc(Nc3ccnc(-c4cnn(S(=O)(=O)C5CC5)c4)n3)cc21 [Example 472, 3-(6-(2-(1-(cyclopropylsulfonyl)-1H-pyrazol-4-yl)pyrimidin-4-ylamino)-2-(hydroxymethyl)-1H-imidazo[4,5-c]pyridin-1-yl)-3-methylbutan-1-ol] | 0.0291 |
| CC(C)n1cnc2cnc(Nc3ccnc(N4CCCCC4)n3)cc21 [Example 130, (1-Isopropyl-1H-imidazo[4,5-c]pyridin-6-yl)-(2-piperidin-1-yl-pyrimidin-4-yl)amine] | 0.0979 |
| CN1CC(n2c(CO)nc3cnc(Nc4ccnc(-c5cnn(S(=O)(=O)C6CC6)c5)n4)cc32)CC1=O (stereo not shown) [Example 476, 4-(6-(2-(1-(cyclopropylsulfonyl)-1H-pyrazol-4-yl)pyrimidin-4-ylamino)-2-(hydroxymethyl)-1H-imidazo[4,5-c]pyridin-1-yl)-1-methylpyrrolidin-2-one] | 0.0909 |
| CC(C)n1c(CO)nc2cnc(Nc3ccnc(N4CCC(C)(O)CC4)n3)cc21 [Example 418, 1-(4-((2-(hydroxymethyl)-1-isopropyl-1H-imidazo[4,5-c]pyridin-6-yl)amino)pyrimidin-2-yl)-4-methylpiperidin-4-ol] | 0.0384 |
| Cc1nc2cnc(Nc3ccnc(N4CCCC(F)C4)n3)cc2n1C(C)C (stereo not shown) [Example 590, [2-(3-Fluoropiperidin-1-yl)pyrimidin-4-yl]-(1-isopropyl-2-methyl-1H-imidazo[4,5-c]pyridin-6-yl)amine] | 0.0519 |
| CC(C)n1cnc2cnc(Nc3ccnc(OCC(C)(C)CO)n3)cc21 [Example 90, 3-(4-(1-isopropyl-1H-imidazo[4,5-c]pyridin-6-ylamino)pyrimidin-2-yloxy)-2,2-dimethylpropan-1-ol] | 0.327 |
| CC(C)n1cnc2cnc(Nc3ccnc(N4CCN(C5CC5)CC4)n3)cc21 [Example 189] | 1.17 |
| CC(C)n1cnc2cnc(Nc3ccnc(N4CCC5(CC4)CNC5)n3)cc21 [Example 222] | 1.69 |
| Cc1nc2cnc(Nc3ccnc(NCC4CCS(=O)(=O)C4)n3)cc2n1C(C)C (stereo not shown) [Example 652] | 0.864 |
| CNC(=O)C(C)(C)n1cc(-c2nccc(Nc3cc4c(cn3)nc(C)n4C(C)C)n2)cn1 [Example 426, 2-(4-(4-((1-isopropyl-2-methyl-1H-imidazo[4,5-c]pyridin-6-yl)amino)pyrimidin-2-yl)-1H-pyrazol-1-yl)-N,2-dimethylpropanamide] | 0.449 |
| CCc1nc2cnc(Nc3ccnc(N4CCC(OC)CC4)n3)cc2n1C(C)C [Example 4, (2-Ethyl-1-isopropyl-1H-imidazo[4,5-c]pyridin-6-yl)-[2-(4-methoxypiperidin-1-yl)pyrimidin-4-yl]amine] | 0.0174 |
| CC(C)n1cnc2cnc(Nc3ccnc(N4CCN(CCN(C)C)CC4)n3)cc21 [Example 207] | 1.55 |
| Cc1nc2cnc(Nc3ccnc(-c4cnn(C(C)C#N)c4)n3)cc2n1C(C)C (stereo not shown) [Example 425, 2-(4-(4-((1-isopropyl-2-methyl-1H-imidazo[4,5-c]pyridin-6-yl)amino)pyrimidin-2-yl)-1H-pyrazol-1-yl)propanenitrile] | 0.0658 |
| CC(C)n1cnc2cnc(Nc3ccnc(N4CC5(CCCCO5)C4)n3)cc21 [Example 188] | 0.816 |
| CC(C)n1cnc2cnc(Nc3ccnc(C4CCN(S(C)(=O)=O)CC4)n3)cc21 [Example 287, (1-Isopropyl-1H-imidazo[4,5-c]pyridin-6-yl)-[2-(1-methanesulfonylpiperidin-4-yl)pyrimidin-4-yl]amine] | 0.614 |
| COC1C2CCC1N(c1nccc(Nc3cc4c(cn3)ncn4C(C)C)n1)C2 (stereo not shown) [Example 182] | 0.542 |
| CC(C)n1cnc2cnc(Nc3ccnc(N4CCC(N5CCCS5(=O)=O)CC4)n3)cc21 [Example 155, {2-[4-(1,1-Dioxo-1lambda^6-isothiazolidin-2-yl)piperidin-1-yl]pyrimidin-4-yl}-(1-isopropyl-1H-imidazo[4,5-c]pyridin-6-yl)amine formate salt] | 0.734 |
| CC(=O)N1CCCN(c2nccc(Nc3cc4c(cn3)ncn4C(C)C)n2)CC1 [Example 184] | 1.08 |

Stronger by Ki, values ahead:

| Ki [µM] | Structure (SMILES) |
| --- | --- |
| 0.00518 | C[C@H](n1c([C@@H](C)O)nc2cnc(Nc3ccnc(N4CC[C@@](C)(O)[C@@H](F)C4)n3)cc21)C(F)(F)F (single isomer, unassigned) [Example 621, (3R*,4S*)-3-Fluoro-1-{4-[2-((R)-1-hydroxyethyl)-1-((S)-2,2,2-trifluoro-1-methylethyl)-1H-imidazo[4,5-c]pyridin-6-ylamino]pyrimidin-2-yl}-4-methylpiperidin-4-ol] |
| 0.00511 | C[C@H](n1c([C@@H](C)O)nc2cnc(Nc3ccnc(N4CCC(C)(O)CC4)n3)cc21)C(F)(F)F [Example 683] |
| 0.00381 | Cc1nc2cnc(Nc3ccnc(-c4cnn(S(=O)(=O)C5CCNC5)c4)n3)cc2n1C(C)C (stereo not shown) [Example 258, 1-Isopropyl-2-methyl-N-(2-(1-(pyrrolidin-3-ylsulfonyl)-1H-pyrazol-4-yl)pyrimidin-4-yl)-1H-imidazo[4,5-c]pyridin-6-amine] |
| 0.00351 | CC(O)c1nc2cnc(Nc3ccnc(-c4cnn(S(=O)(=O)C5CC5)c4)n3)cc2n1C(C)C (racemic) [Example 294, (±)-1-{6-[2-(1-Cyclopropanesulfonyl-1H-pyrazol-4-yl)pyrimidin-4-ylamino]-1-isopropyl-1H-imidazo[4,5-c]pyridin-2-yl}ethanol] |
| 0.00344 | CCC(C)n1cc(C(=O)NCC(F)(F)F)c2cnc(Nc3ccnc(-c4cnn(S(=O)(=O)C5CC5)c4)n3)cc21 (stereo not shown) [Example 704] |
| 0.00256 | CC(C)n1c(CO)nc2cnc(Nc3ccnc(-c4cnc(N(C)C)s4)n3)cc21 [Example 594, {6-[2-(2-Dimethylaminothiazol-5-yl)pyrimidin-4-ylamino]-1-isopropyl-1H-imidazo[4,5-c]pyridin-2-yl}methanol] |
| 0.00226 | CC(C)n1c(OC2CNC2)nc2cnc(Nc3ccnc(-c4cnn(S(=O)(=O)C5CC5)c4)n3)cc21 [Example 284, [2-(Azetidin-3-yloxy)-1-isopropyl-1H-imidazo[4,5-c]pyridin-6-yl]-[2-(1-cyclopropanesulfonyl-1H-pyrazol-4-yl)pyrimidin-4-yl]amine] |
| 0.00178 | CCC(C)n1cc(C(=O)NC2CCOC2)c2cnc(Nc3ccnc(N4CCC(O)C(C)(C)C4)n3)cc21 (mixture of isomers) [Example 373, 1-(sec-butyl)-6-((2-(4-hydroxy-3,3-dimethylpiperidin-1-yl)pyrimidin-4-yl)amino)-N-(tetrahydrofuran-3-yl)-1H-pyrrolo[3,2-c]pyridine-3-carboxamide] |
| 0.00173 | Cc1nn(CCO)cc1-c1cn(C(C)C)c2cc(Nc3ccnc(-c4cnn(S(=O)(=O)C5CC5)c4)n3)ncc12 [Example 437, 2-(4-(6-(2-(1-(cyclopropylsulfonyl)-1H-pyrazol-4-yl)pyrimidin-4-ylamino)-1-isopropyl-1H-pyrrolo[3,2-c]pyridin-3-yl)-3-methyl-1H-pyrazol-1-yl)ethanol] |
| 0.00129 | CC(C)n1cc(-c2cnn(CC(=O)N3CCN(C)CC3)c2)c2cnc(Nc3ccnc(-c4cnn(S(=O)(=O)C5CC5)c4)n3)cc21 [Example 443, 2-(4-(6-(2-(1-(cyclopropylsulfonyl)-1H-pyrazol-4-yl)pyrimidin-4-ylamino)-1-isopropyl-1H-pyrrolo[3,2-c]pyridin-3-yl)-1H-pyrazol-1-yl)-1-(4-methylpiperazin-1-yl)ethanone] |
| 0.00124 | CC1(n2c(CO)nc3cnc(Nc4ccnc(-c5cnn(S(=O)(=O)C6CC6)c5)n4)cc32)CCC1 [Example 484, (6-(2-(1-(cyclopropylsulfonyl)-1H-pyrazol-4-yl)pyrimidin-4-ylamino)-1-(1-methylcyclobutyl)-1H-imidazo[4,5-c]pyridin-2-yl)methanol] |
| 0.001 | COC1CCN(c2nccc(Nc3cc4c(cn3)c(-c3cc[nH]n3)cn4C(C)C)n2)CC1 [Example 64] |
| 0.000828 | CC(C)n1cc(-c2cnn(CC(N)=O)c2)c2cnc(Nc3ccnc(-c4cnn(S(=O)(=O)C5CC5)c4)n3)cc21 [Example 331, 2-(4-(6-((2-(1-(Cyclopropylsulfonyl)-1H-pyrazol-4-yl)pyrimidin-4-yl)amino)-1-isopropyl-1H-pyrrolo[3,2-c]pyridin-3-yl)-1H-pyrazol-1-yl)acetamide] |
